The values that follow are results of earlier work, collected in article PMC3400126 (Journal of Medicinal Chemistry, 2012).

In series [1] the target is T1, GCase N370S in spleen homogenate (Homo sapiens, UniProt P04062, N409S).
T1 sequence (P04062 40-536 N409S): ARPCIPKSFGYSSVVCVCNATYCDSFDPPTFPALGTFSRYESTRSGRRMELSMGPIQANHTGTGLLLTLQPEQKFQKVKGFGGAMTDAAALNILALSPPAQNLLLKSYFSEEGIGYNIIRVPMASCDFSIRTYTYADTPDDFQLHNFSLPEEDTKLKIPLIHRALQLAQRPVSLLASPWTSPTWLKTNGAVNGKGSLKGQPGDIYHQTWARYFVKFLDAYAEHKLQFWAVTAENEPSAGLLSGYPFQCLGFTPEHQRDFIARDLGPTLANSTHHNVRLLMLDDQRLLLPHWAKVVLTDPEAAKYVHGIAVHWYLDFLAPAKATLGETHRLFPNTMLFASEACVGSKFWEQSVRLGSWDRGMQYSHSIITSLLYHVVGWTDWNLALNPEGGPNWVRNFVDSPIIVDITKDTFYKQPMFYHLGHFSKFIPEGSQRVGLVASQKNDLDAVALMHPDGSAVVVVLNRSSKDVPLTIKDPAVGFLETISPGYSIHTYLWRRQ
Conditions: 4MU-Glc substrate; cited from earlier work.

Series [2] has as its target Purified GCase wt. The following applies: read-out: Purified GCase wt IC50; 4MU-Glc substrate; cited from earlier work.

For `COc1ccc(Cl)cc1Nc1nc(NCCO)nc(N2CCCC2)n1` [Compound 7], in series [1], the “Spleen Homogenate N370S IC50” value was “completely inactive”.
For the molecule `CCc1nnc(NC(=O)c2ccc(NS(=O)(=O)c3ccccc3)cc2)s1` [Compound 9], the half-maximal inhibitory concentration (IC50) in series [2] was 100 nM. Besides, in series [1], the “Spleen Homogenate N370S IC50” value was “completely inactive”.

The IC50 is the concentration at which inhibition is half-maximal.
